Legend:
Substance-P receptor [1] = molecular target: T1, Substance-P receptor (Homo sapiens, UniProt P25103); experiment: Displacement of [3H]SP from human NK1 receptor expressed in CHO cells by liquid scintillation counting; format: cell-based
Substance-P receptor [2] = molecular target: T1, Substance-P receptor; experiment: Displacement of [3H]GR205171 from human NK1 receptor in cortex homogenate by liquid scintillation counting

By UniProt entry, the sequences of proteins in these tests, tags left out.
UniProt P25103, whole entry: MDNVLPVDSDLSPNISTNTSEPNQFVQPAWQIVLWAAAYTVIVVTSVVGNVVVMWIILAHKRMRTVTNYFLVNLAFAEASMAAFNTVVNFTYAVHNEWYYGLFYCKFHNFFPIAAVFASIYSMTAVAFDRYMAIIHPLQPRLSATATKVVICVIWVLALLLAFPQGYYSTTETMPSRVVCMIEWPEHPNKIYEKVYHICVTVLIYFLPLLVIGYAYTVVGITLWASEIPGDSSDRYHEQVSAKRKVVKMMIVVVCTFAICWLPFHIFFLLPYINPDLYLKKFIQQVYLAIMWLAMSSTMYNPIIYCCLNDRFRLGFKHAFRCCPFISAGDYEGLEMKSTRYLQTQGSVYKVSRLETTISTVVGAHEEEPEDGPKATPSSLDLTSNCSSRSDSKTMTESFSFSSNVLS

- Ki (Substance-P receptor [1]): 331 pM
- Ki (Substance-P receptor [2]): 126 pM
Structure (SMILES): CC(=O)N1CCN([C@H]2CCN(C(=O)N(C)[C@H](C)c3cc(C(F)(F)F)cc(C(F)(F)F)c3)[C@@H](c3ccc(F)cc3C)C2)CC1 [CASOPITANT]

Source: ChEMBL document CHEMBL1671781, “Discovery and biological characterization of (2R,4S)-1'-acetyl-N-{(1R)-1-[3,5-bis(trifluoromethyl)phenyl]ethyl}-2-(4-fluoro-2-methylphenyl)-N-methyl-4,4'-bipiperidine-1-carboxamide as a new potent and selective neurokinin 1 (NK1) receptor antagonist clinical candidate” (J Med Chem, 2011)
